In PubChem BioAssay AID1527 (The Scripps Research Institute Molecular Screening Center, 2009):
The entries are a selection whose mix differs from that of the whole data set. Calls of active or inactive are those of the source.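 The calls were made as follows: active = inhibition above the mean of all tested compounds plus 3 SD, cutoff set per screening run (cut at about 7.5% in these data); inactive = the rest.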

Test system: VIM-2 metallo-beta-lactamase (Pseudomonas aeruginosa)
Assay: inhibition of VIM-2 nitrocefin hydrolysis – biochemical, epi-absorbance readout, Pseudomonas aeruginosa enzyme, primary screen (AID 1527);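 also: red hydrolysis product quenches plate fluorescence so inhibitors raise well fluorescence; 0% = enzyme with DMSO and 100% = DMSO without enzyme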
Settings: purified VIM-2, nitrocefin hydrolysis, epi-absorbance fluorescence; at 5.6 µM; stronger effect = higher value

SMILES | inhibition
COc1ccccc1OP(C)(=O)Nc1ccc(C)cc1C (centres undefined) | inactive: -0.69%
CP(=O)(Nc1ccccn1)Oc1ccccc1 (centres undefined) | inactive: -2.21%
CCc1ccc(OP(C)(=O)O)cc1 | inactive: -2.34%
COc1ccccc1OP(C)(=O)Nc1ccc(Br)cc1 (centres undefined) | inactive: -2.46%
COc1ccc(OP(C)(=O)Nc2ccccn2)cc1 (centres undefined) | inactive: -3.93%
CN(C)CCOC(=O)C(O)(c1ccccc1)C1CCCC1 (centres undefined) | inactive: -0.66%
Cc1nc2ccc3ccccc3c2o1.O=[N+]([O-])c1cc([N+](=O)[O-])c(O)c([N+](=O)[O-])c1 | inactive: 0.76%
CP(=O)(OCCOc1ccccc1)OCCOc1ccccc1 | inactive: -1.73%
CP(=O)(Nc1ccc(Cl)cc1Cl)Oc1ccccc1 (centres undefined) | inactive: -4.06%
Cc1cc(C)cc(OP(C)(=O)Nc2cccc(C(F)(F)F)c2)c1 (centres undefined) | inactive: -5.97%
COc1ccccc1OP(C)(=O)Nc1ccc(C)c(C)c1 (centres undefined) | inactive: 0.03%
COc1ccc(OP(C)(=O)Nc2ccccc2Br)cc1 (centres undefined) | inactive: -1.12%
CCOC(=O)c1ccc(NP(C)(=O)Oc2ccc(Cl)cc2)cc1 (centres undefined) | inactive: 0.62%
CP(=O)(OC12CC3CC(CC(C3)C1)C2)OC12CC3CC(CC(C3)C1)C2 | inactive: -2%
CC(C)(C)c1ccc(OP(C)(=O)O)cc1 | inactive: -3.06%
COc1ccccc1OP(C)(=O)Nc1ccccc1Br (centres undefined) | inactive: 2.59%
CP(=O)(Nc1ccc(Cl)cc1)Oc1ccc(F)cc1 (centres undefined) | inactive: -1.29%
CN(C)C(=O)c1c([N+](=O)[O-])cc([N+](=O)[O-])cc1[N+](=O)[O-] | inactive: -4.49%
COc1ccc(OP(C)(=O)Nc2ccc(Br)cc2)cc1 (centres undefined) | inactive: -2.23%
CCN(CC)CC(O)COC(=O)C(O)(c1ccccc1)C1CCCCC1 (centres undefined) | inactive: -0.85%
O=C(OCCCN1CCCC1)C(O)(c1ccccc1)C1CCCCC1 (centres undefined) | inactive: -0.47%
COc1ccccc1OP(C)(=O)Nc1c(C)n(C)n(-c2ccccc2)c1=O (centres undefined) | inactive: -0.56%
CCc1ccc(OP(C)(=O)Nc2cccnc2)cc1 (centres undefined) | inactive: 1.2%
CP(=O)(Oc1ccccc1)N1CCOC1=O (centres undefined) | inactive: -0.91%
